Target: human GlyT1c transporter (Homo sapiens (Human), UniProt P48067)
Assay: Radioligand binding assay using recombinant CHO cell membranes expressing human GlyT1
Settings: read-out: radioligand binding Kiapp, tested form: HCl

Amino acid sequences for entries named in this document (tags omitted).
UniProt P48067, whole entry: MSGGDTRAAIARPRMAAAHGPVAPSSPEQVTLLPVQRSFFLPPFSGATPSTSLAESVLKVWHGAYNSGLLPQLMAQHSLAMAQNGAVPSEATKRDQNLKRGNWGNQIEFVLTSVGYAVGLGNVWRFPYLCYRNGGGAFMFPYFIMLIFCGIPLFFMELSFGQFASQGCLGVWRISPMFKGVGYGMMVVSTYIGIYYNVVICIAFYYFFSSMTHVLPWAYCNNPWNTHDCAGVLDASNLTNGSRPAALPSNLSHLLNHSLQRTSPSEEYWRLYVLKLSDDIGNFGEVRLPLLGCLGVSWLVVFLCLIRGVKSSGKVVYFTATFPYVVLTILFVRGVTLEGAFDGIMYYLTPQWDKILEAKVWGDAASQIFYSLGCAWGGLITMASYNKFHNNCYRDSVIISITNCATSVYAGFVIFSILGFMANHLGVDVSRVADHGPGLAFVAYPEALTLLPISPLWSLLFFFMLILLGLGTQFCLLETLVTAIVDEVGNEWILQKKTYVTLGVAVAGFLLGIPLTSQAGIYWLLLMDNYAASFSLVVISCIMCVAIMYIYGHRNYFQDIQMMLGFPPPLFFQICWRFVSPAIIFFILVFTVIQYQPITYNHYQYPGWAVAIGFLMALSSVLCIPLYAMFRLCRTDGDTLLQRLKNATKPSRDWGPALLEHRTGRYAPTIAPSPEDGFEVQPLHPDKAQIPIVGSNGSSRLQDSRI

Work on Cn1cc(S(=O)(=O)NCCOc2ccc3c(c2)C(Cc2ccccc2)C(N2CCCC2)CC3)cn1 (stereo not shown) yielded a Ki of at most 10 nM.

From patent publication US9067871B2, “Aminotetraline derivatives, pharmaceutical compositions containing them, and their use in therapy” (ABBVIE DEUTSCHLAND GMBH & CO KG, priority 2009, dated 2015)
